Measured values reported in patent US20170252319A1, “Flavonoid-Poly(ethylene glycol) Complex Comprising Flavonoid Compounds and Poly(ethylene glycol) and Preparation Method Thereof” (Korea Advanced Institute of Science and Technology, priority 2016, published 2017).

Assay: Confirmation of water-solubility (appearance of solution, photograph)
Assay type: physicochemical
Settings: dissolved in saline or biological buffer at high concentration; complexes at all flavonoid:PEG weight ratios tested (catechin 1:1-10, morin 1:10-500, quercetin 1:10-1000)
Procedure: To investigate the water-solubility of the dried catechin-PEG complex prepared in step 1 above, the dried catechin-PEG complex powder was dissolved in an aqueous solution solvent such as saline or biological buffer at a high concentration, followed by confirmation of the solubility.
To investigate the water-solubility of the dried morin-PEG complex prepared in step 1 above, the dried morin-PEG complex powder was dissolved in an aqueous solution solvent such as saline or biological buffer at a high concentration, followed by confirmation of the solubility.
To investigate the water-solubility of the dried quercetin-PEG complex prepared in step 1 above, the dried quercetin-PEG complex powder was dissolved in an aqueous solution solvent such as saline or biological buffer at a high concentration, followed by confirmation of the solubility.

## Catechin hydrate [non-treated catechin]
  solubility in water: very low
